## AlphaSeq binding of Ab-14 light chain variants to a spike HR2 peptide

Values reported by Li et al. 2023, doi:10.1038/s41467-023-39022-2 (FLAb copy).

Target peptide (SARS-CoV-2 spike, HR2 region): PDVDLGDISGINAS

The variants keep the heavy chain, the linker and the frameworks of Ab-14 (scFv order VH, a (GGGGS)3 linker, VL).
VH: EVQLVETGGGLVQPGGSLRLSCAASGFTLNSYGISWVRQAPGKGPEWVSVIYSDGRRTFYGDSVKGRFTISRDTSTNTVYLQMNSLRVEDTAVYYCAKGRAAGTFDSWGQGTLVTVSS
VL: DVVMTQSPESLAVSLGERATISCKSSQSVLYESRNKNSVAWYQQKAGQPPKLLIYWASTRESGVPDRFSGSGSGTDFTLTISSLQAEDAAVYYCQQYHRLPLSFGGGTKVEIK

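Designed CDR sequences, proposed from the first random library and measured here. Group labels follow the data file (Ctrl: baseline library sampled from a position-specific scoring matrix, with some repeated check sequences; En: ensemble of fine-tuned language models; GP: Gaussian process model; HC: hill climbing; Gen: genetic algorithm; Gibbs: Gibbs sampling; a sequence that several methods proposed may carry one label only). The scFvs were displayed on barcoded MATa yeast, the peptide on MATalpha yeast. Mating (16 h, 30 °C) was followed by selection of diploids and sequencing of their barcodes. Read counts were normalised to the haploid input and turned into Kd by a linear fit to BCL2-family pairs of known affinity, for each replicate. Mating was done six times.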

Variants are written as CDR1, CDR2 and CDR3 of the light chain (limits as in the source). Parent: KSSQSVLYESRNKNSVA, WASTRES, QQYHRLPLS.
The read-out is the apparent dissociation constant on a log10 scale (nM): the lower, the stronger.
Averages over replicates are reported, and they cover detected replicates only.
An entry "not detected" has no value in the source: the pair was not observed among the diploids in any replicate. This suggests poor binding but is not conclusive.

{"CDR-L1": "KSSQSQLYNGRNKNSVA", "CDR-L2": "WASTRES", "CDR-L3": "QQYHRLPCS", "group": "Ctrl", "mean log10 Kd (nM)": "not detected", "seen in": "0/6", "empty controls": "0/18"}
{"CDR-L1": "KLSATYRYESQNKNSIA", "CDR-L2": "EMTTREE", "CDR-L3": "QCYHRLPLS", "group": "En_HC", "mean log10 Kd (nM)": "1.47", "seen in": "6/6", "empty controls": "0/18"}
{"CDR-L1": "KSSISYLYESGNKNSVA", "CDR-L2": "AASTRES", "CDR-L3": "QQYHRLPLS", "group": "GP_HC", "mean log10 Kd (nM)": "0.03", "seen in": "6/6", "empty controls": "0/18"}
{"CDR-L1": "KLQQESNNMNDIQNSVA", "CDR-L2": "DESMLEY", "CDR-L3": "QHYWRLPLT", "group": "En_Gibbs", "mean log10 Kd (nM)": "2.77", "seen in": "4/6", "empty controls": "0/18"}
{"CDR-L1": "KLYQSELYESRNKNSVA", "CDR-L2": "EASTRES", "CDR-L3": "QQYHRLPLS", "group": "GP_Gen", "mean log10 Kd (nM)": "-0.13", "seen in": "6/6", "empty controls": "0/18"}
{"CDR-L1": "HISYMDGHDRKNAHNIA", "CDR-L2": "DTGVTSR", "CDR-L3": "QQYSRLPLI", "group": "En_Gibbs", "mean log10 Kd (nM)": "0.17", "seen in": "6/6", "empty controls": "4/18"}
{"CDR-L1": "KSSQSDLYESRNKNSVA", "CDR-L2": "EASQRES", "CDR-L3": "QQYHRLPLS", "group": "GP_Gen", "mean log10 Kd (nM)": "0.08", "seen in": "6/6", "empty controls": "1/18"}
{"CDR-L1": "KFSQSVLMESRNKNSVA", "CDR-L2": "EASTRES", "CDR-L3": "QQYHRLPLS", "group": "GP_Gen", "mean log10 Kd (nM)": "-0.08", "seen in": "6/6", "empty controls": "3/18"}
{"CDR-L1": "KSSQSVLYESRNKNSVA", "CDR-L2": "WASTRES", "CDR-L3": "QQYHRLPLA", "group": "Ctrl", "mean log10 Kd (nM)": "not detected", "seen in": "0/6", "empty controls": "0/18"}
{"CDR-L1": "KLSQSILYESVNKNSVA", "CDR-L2": "HASTRES", "CDR-L3": "QQYHRLPLS", "group": "GP_HC", "mean log10 Kd (nM)": "0.16", "seen in": "6/6", "empty controls": "5/18"}
{"CDR-L1": "KLREVQHVETKQKNNVA", "CDR-L2": "DNSTRES", "CDR-L3": "QDYYRLPLS", "group": "En_HC", "mean log10 Kd (nM)": "0.74", "seen in": "6/6", "empty controls": "0/18"}
{"CDR-L1": "KLSMVTGHMSIEKNNVA", "CDR-L2": "EMETREN", "CDR-L3": "QQYNRLPLS", "group": "En_Gen", "mean log10 Kd (nM)": "0.43", "seen in": "6/6", "empty controls": "1/18"}
{"CDR-L1": "KLRQSTLYESRNKNSVA", "CDR-L2": "AASTRES", "CDR-L3": "QQYHRLPLS", "group": "GP_HC", "mean log10 Kd (nM)": "0.34", "seen in": "6/6", "empty controls": "2/18"}
{"CDR-L1": "KLSESAHFESRKKNSVA", "CDR-L2": "ENSTRES", "CDR-L3": "QQYEHLPLS", "group": "En_HC", "mean log10 Kd (nM)": "2.93", "seen in": "1/6", "empty controls": "1/18"}
{"CDR-L1": "QLEWDQLWGANYDYSVA", "CDR-L2": "AQDVISP", "CDR-L3": "QQYHRLPLI", "group": "En_Gibbs", "mean log10 Kd (nM)": "2.37", "seen in": "2/6", "empty controls": "1/18"}
{"CDR-L1": "KVSQSVLYESRTFNSVA", "CDR-L2": "NASTRES", "CDR-L3": "QQYHRLPLS", "group": "GP_HC", "mean log10 Kd (nM)": "0.22", "seen in": "6/6", "empty controls": "0/18"}
{"CDR-L1": "KLSMEHDYESRNKNSVA", "CDR-L2": "QASTREW", "CDR-L3": "QQYHRLPLS", "group": "GP_Gibbs", "mean log10 Kd (nM)": "-0.20", "seen in": "6/6", "empty controls": "1/18"}
{"CDR-L1": "LVSQQNLYEDRNKNSVA", "CDR-L2": "NASQRLS", "CDR-L3": "QQYHRLPLS", "group": "GP_Gibbs", "mean log10 Kd (nM)": "-0.06", "seen in": "6/6", "empty controls": "2/18"}
{"CDR-L1": "KLSQSMLYESRNKNSVA", "CDR-L2": "NASQRCS", "CDR-L3": "QQYHRLPLS", "group": "GP_Gen", "mean log10 Kd (nM)": "0.14", "seen in": "6/6", "empty controls": "1/18"}
{"CDR-L1": "KLSYSVMLESRNKNAVA", "CDR-L2": "EASTRMS", "CDR-L3": "QDYHRLPLS", "group": "GP_Gibbs", "mean log10 Kd (nM)": "0.40", "seen in": "6/6", "empty controls": "0/18"}
{"CDR-L1": "VLSQSVLYESRNKNSVA", "CDR-L2": "NASTRMS", "CDR-L3": "QQYHRLPLS", "group": "GP_Gen", "mean log10 Kd (nM)": "-0.20", "seen in": "6/6", "empty controls": "1/18"}
{"CDR-L1": "KSSWSVEYEDRLSNSVA", "CDR-L2": "NASQREW", "CDR-L3": "QQYHRLPLS", "group": "GP_Gibbs", "mean log10 Kd (nM)": "1.22", "seen in": "6/6", "empty controls": "1/18"}

Top 2 of the variants detected in all replicates, tightest first:

{"CDR-L1": "KLSMEHDYESRNKNSVA", "CDR-L2": "QASTREW", "CDR-L3": "QQYHRLPLS", "group": "GP_Gibbs", "mean log10 Kd (nM)": "-0.20", "seen in": "6/6", "empty controls": "1/18"}
{"CDR-L1": "VLSQSVLYESRNKNSVA", "CDR-L2": "NASTRMS", "CDR-L3": "QQYHRLPLS", "group": "GP_Gen", "mean log10 Kd (nM)": "-0.20", "seen in": "6/6", "empty controls": "1/18"}

A sequence measured in both rounds can read differently, since the two assays cover different ranges.
The parent sequence was in this pool as ten entries: three were never detected, three once, and four in most replicates, with averages from 0.34 to 2.37.
The authors averaged sequences with at least three values out of six and counted those with two or fewer as poor binders.
Background: pairings of all light chain designs with three empty control strains gave a value in 4% of cases (median 2.64, 5th percentile 1.59). Values in that range, when seen in few replicates, are hard to tell from nonspecific mating. Also given: how often the same scFv was detected with the empty control strains.